This test deals with T1, glucosylceramide synthase (GCS) (Canis lupus familiaris, UniProt A0A8I3MXG6).
T1 construct: endogenous in cells; host or cells: parental (wild-type) MDCKII cells
T1 sequence (A0A8I3MXG6 1-394): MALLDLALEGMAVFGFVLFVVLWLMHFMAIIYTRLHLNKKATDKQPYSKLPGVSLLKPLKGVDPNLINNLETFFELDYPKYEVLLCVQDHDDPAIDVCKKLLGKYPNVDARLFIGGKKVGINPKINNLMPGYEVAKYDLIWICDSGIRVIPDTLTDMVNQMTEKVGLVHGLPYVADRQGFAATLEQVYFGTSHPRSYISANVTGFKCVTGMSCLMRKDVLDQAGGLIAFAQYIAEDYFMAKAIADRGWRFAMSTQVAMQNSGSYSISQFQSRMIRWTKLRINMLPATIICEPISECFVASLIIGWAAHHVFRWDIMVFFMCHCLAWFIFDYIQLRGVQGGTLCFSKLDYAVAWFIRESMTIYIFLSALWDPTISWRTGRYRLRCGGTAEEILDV
In words: GCS inhibition in MDCKII cells (inhibition of GlcCer production in whole wild-type MDCKII cells). The following applies: Table 2, Cl vs H comparison; read-out: MDCK IC50. Format: cell-based.

The IC50 is the concentration needed to halve the response being measured. Consider `O=C(CC1Cc2ccccc2C1)N[C@H](CN1CCCC1)[C@H](O)c1ccc(OC(F)F)cc1` [Comp. Ex. 9, reference compound], for which the IC50 is 9.6 nM. Next, `O=C(CC1Cc2ccccc2C1)N[C@H](CN1CCCC1)[C@H](O)c1ccc(OC(F)(F)F)cc1` [Comp. Ex. 3, reference compound]: 3.6 nM.

Source of the values: patent publication US11220479B2, “Glucosylceramide synthase inhibitors and therapeutic methods using the same” (THE REGENTS OF THE UNIVERSITY OF MICHIGAN, priority 2019, dated 2022).
